Experimental data published in ChEMBL document CHEMBL1811891 (Bioorg Med Chem, 2011).

The chains behind the UniProt entries cited, without tags or fusion partners.
UniProt P51681, whole entry: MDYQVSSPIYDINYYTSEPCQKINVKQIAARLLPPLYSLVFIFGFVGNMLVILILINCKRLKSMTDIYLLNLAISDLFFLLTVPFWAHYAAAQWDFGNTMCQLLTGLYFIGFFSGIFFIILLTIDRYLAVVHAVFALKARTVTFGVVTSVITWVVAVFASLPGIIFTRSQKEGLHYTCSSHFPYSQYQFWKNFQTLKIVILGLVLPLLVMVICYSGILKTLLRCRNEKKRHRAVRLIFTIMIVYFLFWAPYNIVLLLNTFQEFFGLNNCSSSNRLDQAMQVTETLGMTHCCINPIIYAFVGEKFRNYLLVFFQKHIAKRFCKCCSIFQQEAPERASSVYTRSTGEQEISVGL

How the values were obtained:
[1] = Antagonist activity against human CCR5 receptor assessed as inhibition of HIV1 gp120-induced cell-cell fusion between viral envolop protein expressing human HEK293 cells to human CD4/CCR5 receptor expressing HOS cells after 24 hrs by luciferase reporter gene assay
[2] = molecular target: C-C chemokine receptor type 5 (Homo sapiens, UniProt P51681); assay: Antagonist activity at human CCR5 expressed in CHO cells assessed as inhibition of MIP-1alpha-induced calcium mobilization; type: functional, cell-based

CCCCN1C(=O)[C@@H]([C@H](O)C2CCCCC2)NC(=O)C12CCN(Cc1ccc(Oc3ccccc3)cc1)CC2.Cl
IC50 [1]: 7.8 nM

CCCN1C(=O)[C@@H]([C@H](O)C2CCCCC2)NC(=O)C12CCN(Cc1ccc(Oc3ccc(C(=O)O)cc3)cc1)CC2
IC50 [2]: 30 nM

CNC(=O)c1ccc(Oc2ccc(CN3CCC4(CC3)C(=O)N[C@H]([C@H](O)C3CCCCC3)C(=O)N4C)cc2)cc1
IC50 [2]: 59 nM

CCCCN1C(=O)[C@@H]([C@H](O)C2CCCCC2)NC(=O)C12CCN(Cc1ccc(Oc3ccc(NS(C)(=O)=O)cc3)cc1)CC2.Cl
IC50 [2]: 26 nM
